In paper PMC6102074 (European journal of medicinal chemistry, 2018):

What was measured:
[1] = tested on: C57/Bl6 mice

CC(C)Oc1ccccc1C(=O)Nc1ccccc1C(=O)Nc1cccc(S(=O)(=O)C(F)(F)F)c1 [Compound 65, 2-Isopropoxy-N-(2-(3-(trifluoromethylsulfonyl)phenylcarbamoyl)phenyl)benzamide]
Cmax (PO 30 mg/kg, plasma, male C57/Bl6 mice): 0.30 ng/mL | toxicity or abnormal behavior (mice, IV and PO PK study): no toxicity or abnormal behavior were detected | mortality in maximum tolerated dose study ([1]; PO, 90, 300 and 3000 mg/kg, 5 day with 5 day post-dosing observation, C57/Bl6 mice): no mortality observed | abnormalities post-necropsy ([1]; any of the in vivo mammalian studies): No obvious abnormalities were noted
